Results on 2 compounds are retold here after PubChem BioAssay AID588456 (National Center for Advancing Translational Sciences (NCATS), 2011).

By UniProt entry, the sequences of proteins in these tests, tags left out.
UniProt O89049, whole entry: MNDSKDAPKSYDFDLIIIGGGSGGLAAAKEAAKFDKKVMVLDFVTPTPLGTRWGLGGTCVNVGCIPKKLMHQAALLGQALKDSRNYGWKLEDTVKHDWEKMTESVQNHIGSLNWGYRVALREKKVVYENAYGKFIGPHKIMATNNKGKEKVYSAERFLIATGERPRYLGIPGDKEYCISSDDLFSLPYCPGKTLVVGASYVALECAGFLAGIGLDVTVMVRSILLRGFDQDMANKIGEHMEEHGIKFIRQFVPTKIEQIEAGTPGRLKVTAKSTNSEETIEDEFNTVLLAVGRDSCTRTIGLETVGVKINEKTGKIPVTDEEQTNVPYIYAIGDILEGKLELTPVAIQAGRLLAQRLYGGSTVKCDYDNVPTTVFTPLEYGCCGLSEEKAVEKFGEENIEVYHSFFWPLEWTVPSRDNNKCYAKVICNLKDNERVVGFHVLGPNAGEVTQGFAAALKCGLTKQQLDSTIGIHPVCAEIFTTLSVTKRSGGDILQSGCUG

This is a selection; strong and weak results do not stand in their true shares. Active and inactive are the calls of the source. The call rests on the fitted dose curve; in most records, active means well fitted inhibition curve with a large enough effect; inconclusive means small, poorly fitted or top-dose-only effect; inactive means no such curve, though single readings can be large or run the other way.
On the % scale 0 is the no-effect control and ±100 the full control effect.

In this test the target is Thioredoxin reductase 1, cytoplasmic (Rattus norvegicus) (UniProt O89049). The test can be described thus: qHTS Assay for Substrates of Mammalian Selenoprotein Thioredoxin Reductase 1 (TrxR1): qHTS. Further: nearly all actives have a fitted effect of over 50% in size. The following applies: purified TrxR1 substrate turnover, NADPH consumption readout; at 57.1 µM (top of the series) unless noted. For orientation: In qHTS, concentration-response curves come from the screen itself.
On to `CC(C)(C)c1ccc(OP(C)(=O)Nc2ccc(SC(F)(F)F)cc2)cc1` (configuration not stated), for which the activity change, negative = substrate turnover was inactive: -16.1% [at 114 µM].

With `Cc1ccc(NP(=O)(Oc2cccc(C)c2)Oc2cccc(C)c2)nc1`, the activity change, negative = substrate turnover was inactive: 5.59%.
